Measurements from patent US20240141330A1, “METHODS AND COMPOSITIONS FOR MUTAGENESIS SCREENING IN MAMMALIAN CELLS” (THE BOARD OF REGENTS OF THE UNIVERSITY OF TEXAS SYSTEM, priority 2021, published 2024).

System: human NSCLC cells
Type: cell-based

SMILES: COc1cc2ncnc(Nc3ccc(F)c(Cl)c3)c2cc1OCCCN1CCOCC1 [Gefitinib]
- Effect on transduced NSCLC cells: killed most of the NSCLC cells; also recorded: some surviving cells

“Also recorded” adds a separate entry of the source.
